Values of other authors, collected in patent publication US20260108561A1, “COMPOSITION FOR CELL TRANSPLANTATION THERAPY AND THE USE THEREOF” (NATIONAL UNIVERSITY OF SINGAPORE, priority 2022, published 2026).

Conditions: cited from earlier work

**Q.** With Maraviroc as the substance, how does the half-life read?
**A.** The half-life was 14 to 18 h.
